The results in this text go back to patent US9233127B2, “Compositions and methods for CXCR4 signaling and umbilical cord blood stem cell engraftment” (University of Virginia Patent Foundation, priority 2012, dated 2016).

In this experiment the test system is UCB T-cells. Description: Cytoplasmic IFN-γ and NFAT1 expression in UCB T-cells during mitogen stimulation. The experiment is classed as cell-based, human. The conditions noted are these: exogenous cytokine added during mitogen stimulation; IFN-γ 100 or 1,000 U/ml; 24 h. The protocol:
To further test expression and regulation, exogenous IFN-γ was added (100 or 1,000 U/ml) during mitogen stimulation and cytoplasmic IFN-γ expression in UCB T-cells was measured. […] Importantly however, the rescue-effect on IFN-γ expression in UCB T cells depended on up-regulation of NFAT1, as shown by dual staining for NFAT1 and IFN-γ (FIG. 21A-C). IFN-γ expression was only observed in NFAT1 co-expressing T-cells.

For “IL-2: cytokine added during mitogen stimulation”, the “percentages of IFN-γ-expressing UCB T-cells” value is reported as “did not result in up-regulation”.
